A short description of this data set: Solubility of cocrystal. The data set is classed as physicochemical. The settings on record: RT.

In patent EP3339292A1, “COCRYSTALS OF APREMILAST” (Zaklady Farmaceutyczne Polpharma SA, priority 2016, dated 2018) one finds Solubility data, which are given here for one compound.

`CCOc1cc([C@@H](CS(C)(=O)=O)N2C(=O)c3cccc(NC(C)=O)c3C2=O)ccc1OC.Cn1c(=O)c2c(ncn2C)n(C)c1=O` [APM-CAF, Cocrystal of N-[2-[(1 S)-1-(3-ethoxy-4-methoxyphenyl)-2-(methylsulfonyl)ethyl]-1,3-dioxo-2,3-dihydro-1H-isoindol-4-yl]acetamide and 1,3,7-trimethylpurine-2,6-dione (caffeine)]: the Solubility entry was “Solubility: 20.6µg/ml (RT)”.
